{
  "source": "paper PMC2883962",
  "about": "“Prostate apoptosis response protein 4 sensitizes human colon cancer cells to chemotherapeutic 5-FU through mediation of an NFκB and microRNA network” (Molecular Cancer, 2010)",
  "target": "T1, prostate apoptosis response protein 4 (Par-4), endogenous in native colon cancer cells (human (endogenous in HT29 and SW480), UniProt Q96IZ0 1-340)",
  "T1 construct": "prostate apoptosis response protein 4 (Par-4), endogenous in the human colon cancer cell lines HT29 and SW480; Immunoprecipitated with a Par-4 antibody (Santa Cruz); source: endogenous, lysates of native HT29 and SW480 cells",
  "T1 sequence (looked up)": "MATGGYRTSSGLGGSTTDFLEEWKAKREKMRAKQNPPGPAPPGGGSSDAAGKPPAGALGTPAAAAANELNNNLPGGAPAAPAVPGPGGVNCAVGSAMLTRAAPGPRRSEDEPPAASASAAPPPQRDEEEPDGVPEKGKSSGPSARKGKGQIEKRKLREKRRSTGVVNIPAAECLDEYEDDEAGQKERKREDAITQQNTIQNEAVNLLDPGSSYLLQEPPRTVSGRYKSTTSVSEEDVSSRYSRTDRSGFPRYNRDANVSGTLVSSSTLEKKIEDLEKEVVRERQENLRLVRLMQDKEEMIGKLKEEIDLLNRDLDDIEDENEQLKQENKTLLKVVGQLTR",
  "test": "co-IP; Par-4 immunoprecipitated from lysates of native HT29 cells treated for 24 h with vehicle or 12.5 or 25 μM ISC-4 (AKT inhibitor); immunoprecipitates immunoblotted with PKA, NFκB p50 and 14-3-3 antibodies",
  "conditions": "partners not purified",
  "data": [
    {"binder": "NFκB (subunits p65 and p50) (complex, human (endogenous in HT29 and SW480), NFκB p65 subunit, endogenous in human colon cancer cells; NFκB p50 subunit, the processed product of the p105 precursor, endogenous in human colon cancer cells; also called NFκB p65; NFκB p50; source: endogenous, lysates of HT29 and SW480 cells; nuclear and cytoplasmic fractions of HT29 transfectants) chain 1: MDELFPLIFPAEPAQASGPYVEIIEQPKQRGMRFRYKCEGRSAGSIPGERSTDTTKTHPTIKINGYTGPGTVRISLVTKDPPHRPHPHELVGKDCRDGFYEAELCPDRCIHSFQNLGIQCVKKRDLEQAISQRIQTNNNPFQVPIEEQRGDYDLNAVRLCFQVTVRDPSGRPLRLPPVLSHPIFDNRAPNTAELKICRVNRNSGSCLGGDEIFLLCDKVQKEDIEVYFTGPGWEARGSFSQADVHRQVAIVFRTPPYADPSLQAPVRVSMQLRRPSDRELSEPMEFQYLPDTDDRHRIEEKRKRTYETFKSIMKKSPFSGPTDPRPPPRRIAVPSRSSASVPKPAPQPYPFTSSLSTINYDEFPTMVFPSGQISQASALAPAPPQVLPQAPAPAPAPAMVSALAQAPAPVPVLAPGPPQAVAPPAPKPTQAGEGTLSEALLQLQFDDEDLGALLGNSTDPAVFTDLASVDNSEFQQLLNQGIPVAPHTTEPMLMEYPEAITRLVTGAQRPPDPAPAPLGAPGLPNGLLSGDEDFSSIADMDFSALLSQISS chain 2: MAEDDPYLGRPEQMFHLDPSLTHTIFNPEVFQPQMALPTDGPYLQILEQPKQRGFRFRYVCEGPSHGGLPGASSEKNKKSYPQVKICNYVGPAKVIVQLVTNGKNIHLHAHSLVGKHCEDGICTVTAGPKDMVVGFANLGILHVTKKKVFETLEARMTEACIRGYNPGLLVHPDLAYLQAEGGGDRQLGDREKELIRQAALQQTKEMDLSVVRLMFTAFLPDSTGSFTRRLEPVVSDAIYDSKAPNASNLKIVRMDRTAGCVTGGEEIYLLCDKVQKDDIQIRFYEEEENGGVWEGFGDFSPTDVHRQFAIVFKTPKYKDINITKPASVFVQLRRKSDLETSEPKPFLYYPEIKDKEEVQRKRQKLMPNFSDSFGGGSGAGAGGGGMFGSGGGGGGTGSTGPGYSFPHYGFPTYGGITFHPGTTKSNAGMKHG", "values": [
      {"measurement": "fold increase of Par-4 binding with ISC-4 against vehicle", "result": 4, "unit": "fold"}
    ]}
  ]
}
